pIC50: −log10 of the molar value.
Assays:
Chk1 = Chk1 (Homo sapiens, UniProt O14757)
[1] = target: human Wee1 kinase aa215-647 (Homo sapiens, UniProt P30291); assay: biochemical

Chains of the proteins cited; added tags and fusions are not shown. Residues count along the entry.
UniProt O14757, whole entry, species assumed: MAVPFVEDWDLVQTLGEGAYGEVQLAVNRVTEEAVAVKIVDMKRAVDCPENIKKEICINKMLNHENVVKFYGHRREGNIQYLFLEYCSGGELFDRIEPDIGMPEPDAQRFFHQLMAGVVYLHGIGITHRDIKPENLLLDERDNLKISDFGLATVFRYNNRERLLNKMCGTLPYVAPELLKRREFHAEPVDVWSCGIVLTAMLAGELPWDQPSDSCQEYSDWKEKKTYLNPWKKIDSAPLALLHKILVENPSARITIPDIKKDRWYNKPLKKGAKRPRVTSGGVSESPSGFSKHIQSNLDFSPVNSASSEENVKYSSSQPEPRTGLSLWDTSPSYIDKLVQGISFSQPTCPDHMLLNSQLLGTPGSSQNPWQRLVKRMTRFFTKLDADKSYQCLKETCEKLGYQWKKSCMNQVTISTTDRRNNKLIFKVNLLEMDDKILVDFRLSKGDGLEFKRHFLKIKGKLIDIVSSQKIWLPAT
UniProt P30291, 215-646 limits assumed: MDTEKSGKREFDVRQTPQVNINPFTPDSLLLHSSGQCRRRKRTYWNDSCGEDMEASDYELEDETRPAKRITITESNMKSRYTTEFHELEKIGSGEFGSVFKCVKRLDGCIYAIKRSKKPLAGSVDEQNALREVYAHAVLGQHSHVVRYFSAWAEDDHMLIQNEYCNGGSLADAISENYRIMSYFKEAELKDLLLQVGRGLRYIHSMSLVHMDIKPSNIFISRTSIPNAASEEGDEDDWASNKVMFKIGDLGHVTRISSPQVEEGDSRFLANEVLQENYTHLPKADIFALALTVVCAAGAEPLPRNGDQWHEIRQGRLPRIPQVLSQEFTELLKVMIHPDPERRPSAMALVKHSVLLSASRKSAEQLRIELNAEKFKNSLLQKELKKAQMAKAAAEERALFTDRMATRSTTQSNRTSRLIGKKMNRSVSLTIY

Compound: O=C(O)CCn1c2ccc(O)cc2c2c3c(c(-c4ccccc4)cc21)C(=O)NC3=O [3-(9-Hydroxy-1,3-dioxo-4-phenyl-2,3-dihydro-1H-pyrrolo[3,4-c]carbazol-6-yl)-propionic acid]
- selectivity for Wee1 over Chk1 (Chk1): 18.6 fold
- pIC50 [1]: 7.66
